Molecular target: Endothelin-1 receptor (Homo sapiens, UniProt P25101)
Assay: Antagonist activity at ETA receptor in human pericardial smooth muscle cells assessed as inhibition of endothelin-1-induced [32H]arachidonic acid release incubated for 30 mins by radioactivity based assay
Assay type: functional, cell-based, Pericardial smooth muscle cell

Sequences of proteins named here, by UniProt entry; tags and fusion partners are left off.
UniProt P25101, whole entry: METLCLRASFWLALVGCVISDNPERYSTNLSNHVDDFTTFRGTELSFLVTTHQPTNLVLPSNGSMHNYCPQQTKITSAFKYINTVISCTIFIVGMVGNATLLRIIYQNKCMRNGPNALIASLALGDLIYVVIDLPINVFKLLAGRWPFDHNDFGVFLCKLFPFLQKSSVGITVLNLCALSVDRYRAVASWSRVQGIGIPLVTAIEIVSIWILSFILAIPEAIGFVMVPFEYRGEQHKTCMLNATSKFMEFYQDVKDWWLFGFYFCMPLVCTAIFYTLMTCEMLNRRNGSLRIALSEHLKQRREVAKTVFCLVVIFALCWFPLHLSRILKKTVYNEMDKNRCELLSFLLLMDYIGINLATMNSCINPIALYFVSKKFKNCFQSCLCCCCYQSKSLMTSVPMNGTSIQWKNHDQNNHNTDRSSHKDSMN

Q: How did the IC50 turn out when `CCCCN(CCCC)C(=O)CN1C[C@H](c2cc(OC)c3c(c2)OCO3)[C@@H](C(=O)O)[C@@H]1CC(C)(C)CCC` [ABT-546] was run?
A: 3 nM

Source: ChEMBL document CHEMBL5653593, “Pharmacology of endothelin receptor antagonists ABT-627, ABT-546, A-182086 and A-192621: in vitro studies” (Clin Sci (Lond), 2002)
